# Only a part is listed here, and it is no random draw. Calls of active or inactive are those of the source. Rule as the data show it: active = inhibition above about 50%; inactive = the rest.
# Assay: blockers of TWEAK-induced Fn14 reporter activity – luciferase reporter cells, uHTS, primary screen (AID 1159606)
# Conditions: TWEAK-stimulated Fn14 reporter cells, luciferase luminescence, 8 h; at 10 µM; stronger effect = higher value
row,Compound,inhibition
1,CP(=S)(Nn1cnnc1)Oc1ccccc1 (centres undefined),inactive: 4.65%
2,CP(=O)(Nc1ccccc1Br)Oc1ccccc1 (centres undefined),inactive: -5.64%
3,COc1ccccc1OP(C)(=O)Nc1ccccc1 (centres undefined),inactive: 13.3%
4,CP(=O)(Oc1ccccc1)OC(c1ccccc1)C(F)(F)F (centres undefined),inactive: 6.41%
5,CP(=O)(Nc1ccc(SC(F)(F)F)cc1)Oc1ccc(Cl)cc1 (centres undefined),inactive: -1.07%
6,Cc1cccc(C)c1OP(C)(=O)Nc1ccc(SC(F)(F)F)cc1 (centres undefined),inactive: 17.2%
7,Cc1ccc(Nc2c([N+](=O)[O-])cc([N+](=O)[O-])cc2[N+](=O)[O-])cc1,active: 56.5%
8,Cc1cc(C)cc(OP(C)(=O)Nc2ccc(SC(F)(F)F)cc2)c1 (centres undefined),inactive: 7.56%
9,CP(=O)(NC(=O)Nc1ccccc1)Oc1ccccc1 (centres undefined),inactive: 3.18%
10,CCc1ccc(OP(C)(=O)N2CCN(c3ccc([N+](=O)[O-])cc3)CC2)cc1 (centres undefined),inactive: 4.32%
11,O=[N+]([O-])c1cc([N+](=O)[O-])c(O)c([N+](=O)[O-])c1.c1ccc(Oc2ccncc2)cc1,inactive: 14.5%
12,CCOC(=O)c1ccc(NP(C)(=O)Oc2ccc(OC)cc2)cc1 (centres undefined),inactive: 7.28%
13,CCOP(C)(=S)SCC(=O)NC(C)C(=O)O (centres undefined),inactive: 4.37%
14,CP(=O)(Nc1ccccn1)Oc1ccc(Cl)cc1 (centres undefined),inactive: -11.7%
15,CCN(CC)CCCOC(=O)C(O)(c1ccccc1)c1ccccc1,inactive: 11.9%
16,COc1ccccc1-c1ccccn1.O=[N+]([O-])c1cc([N+](=O)[O-])c(O)c([N+](=O)[O-])c1,inactive: -7.86%
17,O=[N+]([O-])c1cc([N+](=O)[O-])c(Nc2cccnc2)c([N+](=O)[O-])c1,inactive: 25.3%
18,O=[N+]([O-])c1ccc2c(c1)C=Nc1ccccc1O2,inactive: 20.8%
19,Cc1cccc(C)c1OP(C)(N)=O (centres undefined),inactive: -1.89%
20,CC(C)(C)c1ccc(OP(C)(=O)Nc2ccc(SC(F)(F)F)cc2)cc1 (centres undefined),inactive: -4.39%
21,Cc1ccc(NP(C)(=O)Oc2ccccc2)c(C)c1 (centres undefined),inactive: 4.08%
22,COc1ccccc1OP(C)(=O)Nc1ccc(C)cc1 (centres undefined),inactive: 21.8%
23,CCOC(=O)c1ccc(NP(C)(=O)Oc2ccccc2)cc1 (centres undefined),inactive: 6.68%
24,Cc1cc(C)cc(OP(C)(N)=O)c1 (centres undefined),inactive: 6.03%
25,COc1ccc(OP(C)(=O)Nc2cccc(F)c2)cc1 (centres undefined),inactive: 6.09%

row,Compound,inhibition
1,COc1ccccc1OP(C)(=O)Nc1cc(Cl)ccc1C (centres undefined),inactive: -1.62%
2,O=C(O)c1cccc(Nc2c([N+](=O)[O-])cc([N+](=O)[O-])cc2[N+](=O)[O-])c1,inactive: -1.74%
3,CC1=NCCc2c1[nH]c1ccccc21.O=[N+]([O-])c1cc([N+](=O)[O-])c(O)c([N+](=O)[O-])c1,inactive: -2.21%
4,COc1ccccc1OP(C)(=O)Nc1cccc(Br)c1 (centres undefined),inactive: 11.4%
5,CCOC(=O)c1ccc(NP(C)(=O)Oc2cc(C)cc(C)c2)cc1 (centres undefined),inactive: 16.2%
6,Cc1cc(C)cc(OP(C)(=O)Nc2ccc(C)cc2C)c1 (centres undefined),inactive: -3.01%
7,Cc1ccc(C)c(NP(C)(=O)Oc2ccccc2)c1 (centres undefined),inactive: -16.7%
8,Cc1cc(C)cc(OP(C)(=O)Nc2ccccn2)c1 (centres undefined),inactive: 3.34%
9,CP(=O)(Nc1cccc(Br)c1)Oc1ccccc1 (centres undefined),inactive: -4.25%
10,O=[N+]([O-])c1cc([N+](=O)[O-])c(-n2nnc3ccccc32)c([N+](=O)[O-])c1,inactive: 4.19%
11,CN(Cc1cccnc1)C(=O)COc1ccc(Cl)c(Cl)c1.O=[N+]([O-])c1cc([N+](=O)[O-])c(O)c([N+](=O)[O-])c1,inactive: -7.05%
12,O=[N+]([O-])c1cc([N+](=O)[O-])c(-c2cnn(-c3ccccc3)c2)c([N+](=O)[O-])c1,inactive: 22.1%
13,Cc1nc2ccc3ccccc3c2s1.O=[N+]([O-])c1cc([N+](=O)[O-])c(O)c([N+](=O)[O-])c1,inactive: -8.21%
14,CCOC(=O)C(CC)C1=NC(C)(C)Cc2ccccc21.O=[N+]([O-])c1cc([N+](=O)[O-])c(O)c([N+](=O)[O-])c1 (centres undefined),inactive: -0.08%
15,CC1=C2N=C(C=C3N=C(C(C)=C4[N-][C@@](C)([C@@H]5N=C1[C@](C)(CCC(=O)NC[C@@H](C)OP(=O)([O-])O[C@H]1[C@@H](O)[C@@H](n6cnc7cc(C)c(C)cc76)O[C@@H]1CO)[C@H]5CC(N)=O)[C@@](C)(CC(N)=O)[C@@H]4CCC(N)=O)[C@@](C)(CC(N)=O)[C@@H]3CCC(N)=O)C(C)(C)[C@@H]2CCC(N)=O.[C-]#N.[Co+3],inactive: 30.7%
16,O=[N+]([O-])c1cc([N+](=O)[O-])c(Nc2nnnn2CCO)c([N+](=O)[O-])c1,inactive: 27.8%
17,CN1CCCCC1COC(=O)C1(O)c2ccccc2CCc2ccccc21 (centres undefined),inactive: -11.3%
18,COc1ccccc1OP(C)(=O)Nc1c(C)cccc1C (centres undefined),inactive: 7.92%
19,COc1ccc(-c2ccccn2)cc1.O=[N+]([O-])c1cc([N+](=O)[O-])c(O)c([N+](=O)[O-])c1,inactive: -11.6%
20,CCCOc1ccc(NP(C)(=O)Oc2ccc(Cl)cc2)cc1 (centres undefined),inactive: 0.96%
21,CP(=O)(Nc1ccc(SC(F)(F)F)cc1)Oc1ccccc1 (centres undefined),inactive: 5.57%
22,COc1ccc(OP(C)(=O)Nc2cccc(Br)c2)cc1 (centres undefined),inactive: 13.6%
23,CN(C)CCOC(=O)C(O)(c1ccccc1)C1CCCCC1 (centres undefined),inactive: -10.1%
24,COc1ccc(NP(C)(=O)Oc2ccccc2OC)cc1 (centres undefined),inactive: 0.7%
